Experimental findings from patent US6583179B2, “Substituted aminoalkylamide derivatives as antagonists of follicle stimulating hormone” (Ortho-McNeil Pharmaceutical, Inc., priority 1999, dated 2003) are described below.

Protein sequences, listed by entry. Tags and fused reporters are not part of them. Residues count along the entry.
UniProt P23945, 18-695 limits assumed: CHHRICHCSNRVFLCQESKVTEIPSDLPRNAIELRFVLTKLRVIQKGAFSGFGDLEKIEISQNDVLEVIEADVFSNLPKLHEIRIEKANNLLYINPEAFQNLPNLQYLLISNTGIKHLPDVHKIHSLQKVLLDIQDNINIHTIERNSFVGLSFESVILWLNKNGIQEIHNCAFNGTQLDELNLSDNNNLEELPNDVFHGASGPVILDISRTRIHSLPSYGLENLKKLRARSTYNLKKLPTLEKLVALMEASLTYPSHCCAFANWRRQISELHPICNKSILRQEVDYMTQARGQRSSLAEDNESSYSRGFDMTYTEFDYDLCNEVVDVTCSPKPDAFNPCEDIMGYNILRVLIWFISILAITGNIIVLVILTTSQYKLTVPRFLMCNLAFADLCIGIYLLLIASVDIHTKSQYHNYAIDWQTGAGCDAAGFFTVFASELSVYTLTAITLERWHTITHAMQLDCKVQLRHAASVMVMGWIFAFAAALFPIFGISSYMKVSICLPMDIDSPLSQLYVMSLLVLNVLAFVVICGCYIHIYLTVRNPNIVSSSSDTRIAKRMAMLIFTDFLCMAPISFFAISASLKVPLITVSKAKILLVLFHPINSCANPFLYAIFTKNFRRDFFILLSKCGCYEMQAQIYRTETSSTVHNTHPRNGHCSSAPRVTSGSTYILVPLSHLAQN

A value given as a limit tells only on which side of the number the result lay.

The test deals with human FSH receptor (Homo sapiens, UniProt P23945). The test is described as follows: hFSHR CHO cAMP assay (rhFSHR-cLUC cells, FSH-stimulated cAMP, radioimmunoassay). The conditions noted are these: read-out: EC50 hFSHR CHO cAMP; inhibition of cAMP produced by EC70 dose of FSH (4.85 nM); maximum concentration 50 μM. The text has this: Minimum Essential Medium-Alpha (MEM-alpha), fetal bovine serum (FBS), penicillin, streptomycin, geneticin, trypsin-EDTA, Hanks' Balanced Salt Solution (no Calcium chloride, Magnesium chloride, Magnesium sulfate, or phenol red; Ca-Mg free HBSS) were purchased from Gibco BRL (Gaithersburg, Md.). The cells used for the FSH bioassay (rhFSHR-cLUC) were Chinese Hamster Ovary cells (K-1; ATCC) stably transformed with human FSH receptor (pSVK-FSHr) and a cAMP luciferase reporter gene (responsive CGα-180LUC). Follicle Stimulating Hormone (Metrodin; Fertinex) was purchased from Serono, Ltd. (Norwell, Mass.).
The rhFSHR-cLUC cell cultures were maintained in MEM-Alpha supplemented with 10% heat-inactivated FBS (HIFBS), 100 U/ml penicillin, 100 μg/mL streptomycin, and included 0.1 g/L geneticin for stable cell selection.
Forty-eight hours after the cells were plated in sterile 96-well culture plates (Corning, Corning, N.Y.) the spent media was removed and 50 μl assay media (modified growth media with 2% HIFBS) containing 2 mM IBMX (3-isobutyl-1-methyl-xanthine) was added to the cells. Compounds (25 μl) in the appropriate concentration were added followed 5 minutes later by an EC70 dose of FSH (25 μl; 160 ng/ml; 4.85 nM). After 10 minutes @ 22.5° C. (room temperature) the reaction was terminated by addition of 25 μL 0.5 N hydrochloric acid to each well. The amount of cAMP produced was measured by radioimmunoassay in a FlashPlate (DuPont, Boston, Mass.). To each flash plate 60 μL flash plate buffer was added followed by 40 μL acidified cell sample or cAMP standard, followed with the addition of 100 μl ^125l-cAMP trace. The FlashPlates were sealed, incubated overnight @ room temperature, and counted in a Packard TopCount (Packard Instrument Co., Meriden, Conn.). The cAMP radioimmunoassay results were calculated using DPM conversion and log-logit transformation of % binding (Excel program).
Test compounds were solubilized in 30% dimethyl sulfoxide (DMSO) at a concentration of 10 mM before diluting to appropriate concentrations in assay medium. The final DMSO concentration in the treated cells and in the control cells was 0.75%.
For individual experiments, a set of samples were tested including a vehicle control (assay buffer), a reference compound (hFSH) at a range of concentrations designed to elicit a minimal to maximal response, and several concentrations of test compounds together with an EC70 concentration of standard (hFSH challenge). Each compound was performed in duplicates for the primary evaluation and quadruplicates for the dose-ranging experiments. The cAMP radioimmunoassay raw data (pmol) were calculated to provide average pmol cAMP produced/ml and the percent inhibition was calculated as shown below.
% Inh=[1−(Avg.pmoltest compound+standard)/(Avg.pmolstandard)]×100
EC50 values were calculated from an analysis of the concentration-inhibition data using a linear analysis of the data transformed to a log-logit format.
(Changes in cAMP serve as a functional read-out for many G protein-coupled receptors.)
Consider `C[C@H](CN(CC(=O)NCc1ccc(CN)cc1)C(=O)Nc1ccc(-c2ccccc2)cc1)c1ccccc1`, for which the 50% effective concentration (EC50) is at least 50000 nM.

As to `COc1ccccc1CCN(CC(=O)NCc1ccc(CN)cc1)S(=O)(=O)c1cccc(-c2ccc(C(F)(F)F)cc2)c1`, the 50% effective concentration (EC50) is at least 50000 nM.

For the molecule `COc1ccccc1CCN(CC(=O)NCc1ccc(CN)cc1)S(=O)(=O)c1ccc(-c2cccc(N)c2)s1`, the concentration for a half-maximal effect (EC50) amounted to 1270 nM.

On to `NCCCCCCNC(=O)CN(CCC1=CCCCC1)S(=O)(=O)c1ccc(-c2ccccc2Cl)cc1`, for which the concentration for a half-maximal effect (EC50) was 1370 nM.

For the molecule `COc1ccccc1CCN(CC(=O)NCc1ccc(CN)cc1)S(=O)(=O)c1ccc(OC(F)(F)F)cc1`, the EC50 stood at 1080 nM.

As to `COc1ccccc1CN(CC(=O)N1CCNCC1)S(=O)(=O)c1ccc(-c2ccc(F)cc2)cc1`, the EC50 is at least 50000 nM.

On to `COc1ccccc1CCN(CC(=O)NCc1ccc(CN)cc1)S(=O)(=O)c1ccc(-c2ccccc2)s1`, for which the concentration giving a half-maximal response (EC50) came out at 19500 nM.

Regarding `COc1ccccc1CCN(CC(=O)NCc1ccc(CN)cc1)S(=O)(=O)c1ccc(-c2ccncc2)s1`, the EC50 was 8940 nM.

As for `COc1ccccc1CN(CC(=O)NCc1cccc(CN)c1)S(=O)(=O)c1ccc(-c2ccccc2C)cc1`, the EC50 came to 2240 nM.

For `COc1cc(CCN(CC(=O)NCc2ccc(CN)cc2)S(=O)(=O)c2ccc(-c3ccccc3Cl)cc2)cc(-c2ccccc2Cl)c1OC`, the half-maximal effective concentration (EC50) came out at 130 nM.

For `COc1ccccc1CCN(CC(=O)NCc1ccc(CN)cc1)S(=O)(=O)c1ccc(Cl)cc1`, the EC50 amounted to 1010 nM.

For `COc1ccccc1CCN(CC(=O)NCc1ccc(CN)cc1)S(=O)(=O)c1ccccc1-c1ccccc1F`, the EC50 came out at 3760 nM.

As to `COc1ccc(-c2ccc(S(=O)(=O)N(CCc3ccccc3OC)CC(=O)NCc3ccc(CN)cc3)s2)cc1`, the EC50 stood at 5100 nM.

With `COc1ccccc1CCN(CC(=O)NCc1ccc(CN)cc1)S(=O)(=O)c1ccc(-c2ccccn2)s1`, the EC50 amounted to 24300 nM.

For the molecule `Cc1ccccc1-c1ccc(S(=O)(=O)N(CC(=O)NC2CCC(CC3CCC(N)CC3)CC2)C[C@H](C)c2ccccc2)cc1` (some centres unmarked), the half-maximal effective concentration (EC50) stood at 1330 nM.

`COc1ccccc1CCN(CC(=O)NCc1ccc(CN)cc1)S(=O)(=O)c1cccc(-c2ccccc2C(F)(F)F)c1`: the EC50 came to 6760 nM.

In the case of `COc1ccccc1CCN(CC(=O)NCc1ccc(CN)cc1)S(=O)(=O)c1ccc(-c2ccc(C(F)(F)F)cc2)s1`, the EC50 stood at 34400 nM.

As to `C[C@H](CN(CC(=O)NCc1ccc(CN)cc1)S(=O)(=O)c1ccc(-c2c(F)cccc2F)cc1)c1ccccc1`, the EC50 stood at 190 nM.

For `NCCCCCCNC(=O)CN(CCc1cccc(Cl)c1)S(=O)(=O)c1ccc(-c2ccccc2Cl)cc1`, the EC50 turned out to be 1200 nM.

`NCc1ccc(CNC(=O)CN(CCC2=CCCCC2)S(=O)(=O)c2ccc(-c3ccccc3Cl)cc2)cc1`: the EC50 is 2330 nM.

Take `NCCCCCCNC(=O)CN(CCCc1ccccc1)S(=O)(=O)c1ccc(-c2ccccc2Cl)cc1`: the EC50 is 1240 nM.

For `C[C@@H](CN(CC(=O)NCc1ccc(CN)cc1)S(=O)(=O)c1ccc(-c2cc(Cl)cc(Cl)c2)cc1)c1ccccc1`, the 50% effective concentration (EC50) is over 50000 nM.

As to `Cc1ccccc1-c1ccc(S(=O)(=O)N(CC(=O)N2CCC(C3CCNCC3)CC2)C[C@@H](C)c2ccccc2)cc1`, the EC50 stood at 750 nM.

As to `COc1ccccc1CCN(CC(=O)NCc1ccc(CN)cc1)S(=O)(=O)c1cccs1`, the EC50 was found to be 8060 nM.

With `COc1ccccc1CN(CC(=O)NCc1cccc(CN)c1)S(=O)(=O)c1ccc(-c2ccccc2Cl)cc1`, the EC50 came to 790 nM.

Regarding `COc1ccccc1C(C)CN(CC(=O)NCCCCCCN)S(=O)(=O)c1ccc(-c2ccccc2Cl)cc1` (centres unmarked), the EC50 was 40 nM.

On to `CCOc1ccccc1CCN(CC(=O)NCc1ccc(CN)cc1)S(=O)(=O)c1ccc(-c2ccccc2Cl)cc1`, for which the EC50 was found to be 230 nM.

For the molecule `CS(=O)(=O)Nc1ccccc1CCN(CC(=O)NCc1ccc(CN)cc1)S(=O)(=O)c1ccc(-c2ccccc2Cl)cc1`, the concentration for a half-maximal effect (EC50) was over 50000 nM.

As for `COc1ccccc1CCN(CC(=O)NCc1ccc(CN)cc1)S(=O)(=O)c1ccc(OC)c(OC)c1`, the EC50 is at least 50000 nM.

For `C[C@@H](CN(CC(=O)NCc1ccc(CN)cc1)S(=O)(=O)c1ccc(-c2cccc(C(=O)O)c2)cc1)c1ccccc1`, the 50% effective concentration (EC50) is at least 50000 nM.

As to `COc1cccc(-c2ccc(S(=O)(=O)N(CC(=O)NCc3ccc(CN)cc3)C[C@H](C)c3ccccc3)cc2)c1C(=O)N(C(C)C)C(C)C`, the EC50 turned out to be 16300 nM.

As for `COc1cccc(CCN(CC(=O)NCCCCCCN)S(=O)(=O)c2ccc(-c3ccccc3Cl)cc2)c1`, the concentration giving a half-maximal response (EC50) worked out at 1020 nM.

In the case of `COc1ccccc1CCN(CC(=O)NCc1ccc(CN)cc1)S(=O)(=O)c1ccccc1-c1c(C)noc1C`, the concentration for a half-maximal effect (EC50) came to 8900 nM.

Consider `COc1ccccc1CCN(CC(=O)NCc1ccc(CN)cc1)S(=O)(=O)c1cccc(-c2cccc(F)c2)c1`, for which the 50% effective concentration (EC50) was 2390 nM.

As to `C[C@@H](CN(CC(=O)NCc1ccc(CN)cc1)S(=O)(=O)c1ccc(-c2ccc(Cl)cc2Cl)cc1)c1ccccc1` [303], the EC50 came to 440 nM.

Take `NCc1ccc(CNC(=O)CN(CC(c2ccccc2)c2ccccc2)S(=O)(=O)c2ccc(-c3ccccc3Cl)cc2)cc1`: the EC50 was at least 50000 nM.

Turning to `COc1ccccc1CCN(CC(=O)N1CCNCC1)S(=O)(=O)c1ccc(-c2cccc(F)c2)cc1`, the concentration for a half-maximal effect (EC50) amounted to 8990 nM.

On to `COc1ccccc1CCN(CC(=O)NCc1ccc(CN)cc1)S(=O)(=O)Cc1ccccc1`, for which the EC50 was 10400 nM.

With `C[C@@H](CN(CC(=O)NCc1ccc(CN)cc1)S(=O)(=O)c1ccc(-c2cccc3ccccc23)cc1)c1ccccc1`, the concentration giving a half-maximal response (EC50) worked out at 580 nM.

For the molecule `COc1ccc(-c2ccc(S(=O)(=O)N(CCc3ccccc3OC)CC(=O)N3CCNCC3)cc2)cc1`, the EC50 stood at 20400 nM.

In the case of `COc1ccc(OC)c(-c2ccc(S(=O)(=O)N(CC(=O)NCc3ccc(CN)cc3)C[C@H](C)c3ccccc3)cc2)c1`, the EC50 was 170 nM.

Take `Cc1noc(C)c1-c1ccc(S(=O)(=O)N(CC(=O)NCc2ccc(CN)cc2)C[C@H](C)c2ccccc2)cc1`: the EC50 was 730 nM.

Consider `COc1ccccc1CN(CC(=O)NCCCCCCN)S(=O)(=O)c1ccc(-c2ccc(Cl)cc2Cl)cc1`, for which the 50% effective concentration (EC50) was found to be 360 nM.

With `C[C@H](CN(CC(=O)NCc1cccc(CN)c1)S(=O)(=O)c1ccc(-c2ccccc2Cl)cc1)c1ccccc1`, the concentration for a half-maximal effect (EC50) is 720 nM.

For the molecule `COc1ccccc1CCN(CC(=O)NCc1ccc(CN)cc1)S(=O)(=O)c1ccccc1-c1ccc(Cl)cc1Cl`, the EC50 was 7990 nM.

Turning to `Cc1csc(-c2ccc(S(=O)(=O)N(CC(=O)NCc3ccc(CN)cc3)C[C@H](C)c3ccccc3)cc2)c1`, the half-maximal effective concentration (EC50) is 1890 nM.

As to `COc1cc(CCN(CC(=O)NCc2ccc(CN)cc2)S(=O)(=O)c2ccc(-c3ccccc3Cl)cc2)cc(Br)c1OC`, the concentration giving a half-maximal response (EC50) is 110 nM.

As for `COc1ccc(-c2ccc(S(=O)(=O)N(CC(=O)NCc3ccc(CN)cc3)C[C@H](C)c3ccccc3)cc2)cc1OC`, the EC50 came out at 210 nM.

In the case of `C[C@@H](CN(CC(=O)NCc1ccc(CN)cc1)S(=O)(=O)c1ccc(-c2ccccc2C(F)(F)F)cc1)c1ccccc1` [304], the EC50 came out at 300 nM.

Consider `NCc1ccc(CNC(=O)CN(C2CC2c2ccccc2)S(=O)(=O)c2ccc(-c3cccc(F)c3)cc2)cc1` (centres unmarked), for which the EC50 was determined as 4360 nM.

As for `COc1ccc(-c2ccc(S(=O)(=O)N(CC(=O)NCc3ccc(CN)cc3)C[C@H](C)c3ccccc3)cc2)c(OC)c1OC`, the half-maximal effective concentration (EC50) amounted to 120 nM.

Turning to `COc1ccccc1CCN(CC(=O)NCc1ccc(CN)cc1)S(=O)(=O)c1ccc(-c2ccc(Cl)cc2)s1`, the EC50 was found to be 6950 nM.

For `COc1ccccc1CCN(CC(=O)NCc1ccc(CN)cc1)S(=O)(=O)c1ccc(F)cc1`, the concentration giving a half-maximal response (EC50) came to 1860 nM.

Regarding `C[C@H](CN(CC(=O)NCc1ccc(CN)cc1)S(=O)(=O)c1ccc(C(F)(F)F)cc1)c1ccccc1`, the EC50 turned out to be 740 nM.

For `C[C@H](CN(CC(=O)NCc1ccc(CN)cc1)S(=O)(=O)c1ccc(-c2ccc(Cl)cc2Cl)cc1)c1ccccc1`, the EC50 was found to be 450 nM.

For the molecule `COc1ccccc1CCN(CC(=O)NCc1ccc(CN)cc1)S(=O)(=O)c1ccc(-c2cccc(C(F)(F)F)c2)s1`, the EC50 is 6880 nM.

Turning to `COc1ccccc1CCN(CC(=O)N1CCNCC1)S(=O)(=O)c1ccc(-c2ccc(C)cc2)cc1`, the EC50 is 10300 nM.

Regarding `COc1ccccc1CCN(CC(=O)NCc1ccc(CN)cc1)S(=O)(=O)c1ccc(-c2ccccc2OC)s1`, the EC50 was 2080 nM.

As for `C[C@@H](CN(CC(=O)NCc1ccc(CN)cc1)S(=O)(=O)c1ccc(-c2ccccc2[N+](=O)[O-])cc1)c1ccccc1`, the EC50 worked out at 230 nM.

What is called EC50 is the concentration that produces a half-maximal response.
